Earlier results in US20170165627A1, “MICROENCAPSULATION PROCESS” (ENCAPSYS, LLC, priority 2015, published 2017).

Details: @ 25° C.

Question: For “Ethoxylated (4) bisphenol A diacrylate [SR601]”, which Solubility in water is on record?
Answer: 450 µg/mL

Question: For “ethoxylated (30) bisphenol A diacrylate [SR9038]”, which Solubility in water is on record?
Answer: Water soluble
